Only some compounds are listed: those with a hit (about 2.8% of all), similar ones and a draw of the others.
C2C12 statin: suppressors of statin myotoxicity in C2C12 myotubes, primary screen, cell-based, single point, plate reader; C2C12 myotubes + simvastatin, ATP luminescence, 48 h; scaled: DMSO 0, geranylgeraniol control 100; 0.78% of 330,000 active; rescue of ATP level, % at 7.49 µM;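 active means mean ATP rescue above about 67%, or every replicate alone reaching that limit, limit read from the data, passing the limit was not always enough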;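 further: myotubes were challenged with 10 µM simvastatin during compound exposure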
PglD DTNB: C. jejuni PglD acetyltransferase inhibitors, primary screen, biochemical, DTNB colorimetric, single point. UDP-N-acetylbacillosamine N-acetyltransferase PglD (Campylobacter jejuni). purified PglD enzyme, DTNB colorimetric CoA detection. inhibition, % at 12.5 µM. 0.098% of 360,000 active. AID 602405, 2012; in the data active means inhibition above about 16%, passing the limit was not always enough
E-sel inducer: E-selectin induction in HUVECs, primary screen, imaging, HUVEC, immunofluorescence imaging, single point; P16581; normalized: neutral wells 0, TNF-alpha wells 100; activation, % at 7.58 µM; 0.37% of 260,000 active; AID 686992, 2013;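 active means mean E-selectin-positive cell signal at least 10% of the positive control, reached in at least 60% of replicates, without over 20% cell loss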
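System: HUVEC / Compound: single concentration / Signal: immunofluorescence imaging / Read-out: percent E-selectin-positive cells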
UUG fidelity: modulators of start codon recognition fidelity in yeast. activity score, % at 18.7 µM. S. cerevisiae UUG-firefly luciferase reporter, luminescence/redox ratio. 350,000 compounds, 0.13% hits;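 active means replicate mean at a twofold rise or more, about +100% in these data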;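 further: firefly luciferase made from a UUG start codon reports start codon fidelity; reporter light over untreated wells divided by growth signal over untreated wells; some hits fall short of that in this replicate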
esBAF inh: Bmi1 luciferase reporter increase in mESCs, primary screen, esBAF inhibitor project, mouse ES cells, Bmi1 luciferase knock-in, single point; 24 h; 100% = twice the neutral-well signal; reporter increase, % at 12.5 µM; 2% of 350,000 active; in the data active means activation above about 40%;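 further: a rise in the Bmi1 reporter signal indicates esBAF inhibition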
PGC1a acetyl inh: inhibitors of PGC1a acetylation signal, primary screen, cell-based, U2OS, AlphaScreen, inhibitor mode. AlphaScreen anti-acetyl-lysine; with virally co-expressed GCN5 acetyltransferase. inhibition, % at 15.6 µM. 0.17% of 350,000 active;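 active means every replicate shows inhibition of at least 40%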
A number is an active result; . = inactive; / = not tested or not shown.

SMILES	C2C12 statin	PglD DTNB	E-sel inducer	UUG fidelity	esBAF inh	PGC1a acetyl inh
Cc1ccccc1/C=C1\CCCc2ccccc2C1=O	.	.	.	.	82	.
O=C1C(=Cc2ccccn2)CCc2ccccc21	.	.	.	.	64	.
FC(F)(F)c1cccc(CN2[C@@H]3CNC[C@H]2C3c2ccc(-c3ccncc3)cc2)c1 (stereo partly drawn)	/	/	.	/	/	/
O=C(Nc1ccc(CN2CCOCC2)cc1)c1ccc(N2CCCC2)c([N+](=O)[O-])c1	/	/	.	/	/	/
CCc1ccc(NC(=O)C(C)OC(=O)c2ccc(N3CCCC3)c([N+](=O)[O-])c2)cc1 (stereo not drawn)	/	/	26	/	/	/
COc1ccc(S(=O)(=O)Nc2ccc3c(c2)C(=O)N([C@@H](C)CO)C[C@H](C)[C@@H](CN(C)S(=O)(=O)c2ccc(Cl)cc2)OCCCC[C@@H](C)O3)cc1	/	.	.	.	.	.
C[C@@H]1CN([C@@H](C)CO)C(=O)Cc2cc(NC(=O)Nc3ccc4c(c3)OCO4)ccc2O[C@H]1CN(C)C	.	.	384	.	.	.
C[C@@H]1CN([C@H](C)CO)C(=O)Cc2cc(NC(=O)Nc3ccc4c(c3)OCO4)ccc2O[C@H]1CN(C)Cc1ccc(Cl)c(Cl)c1	.	.	300	.	.	.
CC(C)NC(=O)Nc1ccc2c(c1)CC(=O)N([C@@H](C)CO)C[C@H](C)[C@@H](CN(C)Cc1ccc(Cl)c(Cl)c1)O2	.	.	.	.	.	.
CC(C)NC(=O)Nc1ccc2c(c1)CC(=O)N([C@H](C)CO)C[C@H](C)[C@H](CN(C)Cc1ccc(Cl)c(Cl)c1)O2	.	.	59	.	.	.
CC(C)NC(=O)Nc1ccc2c(c1)CC(=O)N([C@H](C)CO)C[C@@H](C)[C@@H](CN(C)Cc1ccc(Cl)c(Cl)c1)O2	.	.	47	.	.	.
CC(C)NC(=O)Nc1ccc2c(c1)CC(=O)N([C@@H](C)CO)C[C@@H](C)[C@@H](CN(C)Cc1ccc(Cl)c(Cl)c1)O2	.	.	.	.	.	.
CCNC(=O)Nc1ccc2c(c1)C(=O)N(C)[C@@H]1CC[C@@H](CC(=O)Nc3ccccc3)O[C@@H]1CO2	.	.	.	.	.	.
C/C=C/c1ccc2c(c1)O[C@H](CN(C)C(=O)c1cnccn1)[C@H](C)CN([C@H](C)CO)S2(=O)=O	.	.	.	.	.	.
COc1ccc(S(=O)(=O)N(C)C[C@H]2Oc3ccc(NC(=O)Nc4ccc5c(c4)OCO5)cc3CC(=O)N([C@@H](C)CO)C[C@H]2C)cc1	.	.	79	.	.	.
Cc1ccc(C)c(NC(=O)CSc2nnc(C3CCCCC3)o2)c1	71	.	.	.	.	/
COc1ccc(CNC(=O)C2CCN(S(=O)(=O)c3ccc4c(c3)C(C)(C)C(=O)N4C)CC2)cc1	86	.	.	.	.	.
COc1ccc(CNC(=O)C2CCCN(S(=O)(=O)c3ccc4c(c3)C(C)(C)C(=O)N4C)C2)cc1 (stereo not drawn)	.	.	.	.	.	.
CS(=O)(=O)N1N=C(c2ccc(Br)cc2)CC1c1cccs1 (stereo not drawn)	.	.	/	.	77	.
Cc1ccc(C2=NN(S(C)(=O)=O)C(c3cccs3)C2)cc1 (stereo not drawn)	.	.	/	.	/	.
Cc1cccc(C)c1NC(=O)CN(C)C(=O)c1ccc(-n2cncn2)c([N+](=O)[O-])c1	.	.	50	.	/	.
Cc1ccc(C)c(NC(=O)CN(C)C(=O)c2ccc(-n3cncn3)c([N+](=O)[O-])c2)c1	/	/	.	/	/	/
CO[C@H]1CN(C)C(=O)c2ccc(NS(=O)(=O)c3ccccc3)cc2OC[C@H](C)N(C)C[C@H]1C	.	/	.	/	.	.
C=C[C@@H](C)[C@@H](OC(=O)Nc1ccc(OC)cc1)c1ccc(OCCO)cc1	/	.	/	.	/	.
COc1ccc(S(=O)(=O)Nc2ccc3c(c2)C(=O)N([C@@H](C)CO)C[C@H](C)[C@H](CN(C)S(=O)(=O)c2ccccc2)OCCCC[C@H](C)O3)cc1	/	/	.	/	/	.
SMILES	C2C12 statin	PglD DTNB	E-sel inducer	UUG fidelity	esBAF inh	PGC1a acetyl inh
CCN(CC)C(=O)c1sc(NC(=O)C(Sc2ccccc2)c2ccccc2)c(C(=O)OC(C)C)c1C (stereo not drawn)	101	.	/	.	.	.
CCN(CC)C(=O)c1sc(N)c(C(=O)OC(C)C)c1C	.	.	/	.	.	.
Cc1cc(C(=O)Nc2cccc3c2O[C@@H](CN(C)C(=O)NC(C)C)[C@@H](C)CN([C@H](C)CO)C3=O)n(C)n1	.	.	.	.	.	.
O=C(C[C@H]1C[C@H]2c3cc(NS(=O)(=O)c4ccc(F)cc4)ccc3O[C@H]2[C@H](CO)O1)NCc1cccnc1	.	.	.	/	.	.
CSc1cccc(NC(=O)/C=C/c2ccccc2)c1	.	.	/	.	62	.
COc1ccc(NC(=O)/C=C/c2ccccc2)cn1	.	.	/	.	42	.
COc1cc(OC)cc(-c2cc3nc(C)c(CCC(=O)NCc4ccccc4)c(C)n3n2)c1	.	.	.	.	.	.
COc1cc(OC)cc(-c2nc3nc(C)c(CCC(=O)O)c(C)n3n2)c1	117	.	/	.	.	.
c1ccc(-c2cc(-c3nnc4n3N=C(c3ccc5ccccc5c3)CS4)[nH]n2)cc1	80	.	/	.	.	.
Cc1cc(-c2nnc3n2N=C(c2ccc(-c4ccccc4)cc2)CS3)n[nH]1	.	.	/	.	.	.
Cc1ccc(S(=O)(=O)N[C@H]2CC[C@H](CC(=O)N3CCc4ccccc4C3)O[C@@H]2CO)cc1	.	.	.	/	.	.
COc1ccc2c(c1)C(=NN)c1cc(OC)ccc1-2	.	.	/	.	43	.
COc1ccc2c3c(n(C)c2c1)[C@H](CO)N(C(=O)C1CC1)CC31CCN(C(=O)c2ccncc2)CC1	/	/	.	/	/	/
COc1ccc(C(=O)N/N=C\c2ccoc2)cc1	/	.	.	.	/	/
COc1ccc(/[N+]([O-])=C/c2ccoc2)cc1	.	.	.	.	80	.
CCOC(=O)N1CCN(C(=O)c2cc(COc3cccc(C(C)=O)c3)on2)CC1	.	.	.	.	42	.
CC(=O)c1ccc(OCc2cc(C(=O)N3CCOCC3)no2)cc1	.	.	.	.	61	.
CC(=O)c1cccc(OCc2cc(C(=O)NCc3nc(C)c(C)s3)no2)c1	.	.	.	.	48	/
CC(=O)c1cccc(OCc2cc(C(=O)N(C)C(C)c3ccccn3)no2)c1 (stereo not drawn)	.	.	/	.	.	.

Bioassay records from PubChem BioAssay.
